Results reported in BindingDB's records for doi:10.1016/s0022-2836(03)00399-1 (Celera, 2003).
pKi: −log10 of the molar value.

By UniProt entry, the sequences of proteins in these tests, tags left out. Residues count along the entry.
UniProt P00742, 41-179 limits assumed: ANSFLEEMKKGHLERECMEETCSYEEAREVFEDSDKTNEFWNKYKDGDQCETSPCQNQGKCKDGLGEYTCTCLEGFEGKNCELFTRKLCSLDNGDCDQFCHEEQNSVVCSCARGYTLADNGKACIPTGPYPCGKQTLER
UniProt P00742, 235-488 limits assumed: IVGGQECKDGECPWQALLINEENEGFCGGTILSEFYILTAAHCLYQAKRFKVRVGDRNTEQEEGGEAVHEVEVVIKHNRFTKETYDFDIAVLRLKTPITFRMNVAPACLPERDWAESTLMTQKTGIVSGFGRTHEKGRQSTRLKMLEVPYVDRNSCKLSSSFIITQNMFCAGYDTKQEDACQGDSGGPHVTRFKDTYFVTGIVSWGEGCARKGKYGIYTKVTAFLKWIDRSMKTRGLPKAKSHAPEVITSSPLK

Target: Coagulation factor X (Homo sapiens, UniProt P00742)
Assay: Enzyme Assay and Determination of the Inhibition Constants

## N=C(N)c1ccc2nc(-c3cccc(-c4ccccc4)c3O)[nH]c2c1 [2-{5-[amino(iminiumyl)methyl]-1H-1,3-benzodiazol-2-yl}-6-phenylbenzen-1-olate]
  pKi: 5.80

## N=C(N)c1cc2cc(-c3cccc(-c4ccccc4)c3O)[nH]c2cc1F [CA-12]
  pKi: 6.01
